Source: PMC6944907

Biological target: SAMHD1 109–626 with His tag (human) (UniProt Q9Y3Z3)
Test: MST

- Kd: 270 nM
Substance: TRIM21-PRY&SPRY motif with GST tag (domain or fragment)
